Laboratory results from ChEMBL document CHEMBL1139480, “Urotensin-II receptor ligands. From agonist to antagonist activity” (J Med Chem, 2005).

Biological target: T1, Urotensin-2 receptor (Rattus norvegicus, UniProt P49684)
T1 sequence (P49684 whole entry): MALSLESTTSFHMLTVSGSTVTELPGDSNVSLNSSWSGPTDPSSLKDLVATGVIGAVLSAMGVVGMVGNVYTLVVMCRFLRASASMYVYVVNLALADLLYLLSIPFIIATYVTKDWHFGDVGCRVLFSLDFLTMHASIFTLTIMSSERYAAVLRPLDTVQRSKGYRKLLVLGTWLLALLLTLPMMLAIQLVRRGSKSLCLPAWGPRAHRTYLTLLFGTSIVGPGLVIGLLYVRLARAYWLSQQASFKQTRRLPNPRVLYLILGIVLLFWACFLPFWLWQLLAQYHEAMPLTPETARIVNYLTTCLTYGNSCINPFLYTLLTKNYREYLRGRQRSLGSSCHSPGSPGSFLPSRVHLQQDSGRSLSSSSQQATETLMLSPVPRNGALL
Test: Antagonist activity at rat UT receptor
Type: functional
Conditions: read-out: pA2 (converted)
Outline: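 Thoracic aorta from male albino Wistar rats (275–350 g), decapitated under ether anesthesia, was cut into paired strips in oxygenated Krebs–Henseleit and recorded isotonically under 5 mN load. The control strip received cumulative hU-II. The test strip received the antagonist for 30 min, then cumulative hU-II. KCl 80 mM at the end gave the maximal contraction. pK_B = log(dose ratio − 1) − log[antagonist], slope assumed −1.0, averaged over individual values. Competition was checked by Schild plot.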

CC(C)[C@H](NC(=O)[C@@H]1CSSC(C)(C)[C@H](NC(=O)[C@@H](N)CC(=O)O)C(=O)N[C@@H](Cc2ccccc2)C(=O)N[C@@H](Cc2c[nH]c3ccccc23)C(=O)N[C@@H](CCCN)C(=O)N[C@@H](Cc2ccc(O)cc2)C(=O)N1)C(=O)O
Kb: 39.8 nM (antagonist)
